Laboratory results reported in article PMC6711705, “Tailored tetravalent antibodies potently and specifically activate Wnt/Frizzled pathways in cells, organoids and mice” (eLife, 2019).
Substitutions are numbered along the chain they refer to.

B1: F^P IgG (antibody, V domains shown)
VH: EVQLVESGGGLVQPGGSLRLSCAASGFNIGSSSIHWVRQAPGKGLEWVASIYSAFASTSYADSVKGRFTISADTSKNTAYLQMNSLRAEDTAVYYCARYHFPFGFALDYWGQGTLVTVSS
VL: DIQMTQSPSSLSASVGDRVTITCRASQSVSSAVAWYQQKPGKAPKLLIYSASSLYSGVPSRFSGSRSGTDFTLTISSLQPEDFATYYCQQGVYLFTFGQGTKVEIK
B2: L6^1 IgG (antibody, V domains shown)
VH: EVQLVESGGGLVQPGGSLRLSCAASGFNISSYYIHWVRQAPGKGLEWVASIYSSYGYTSYADSVKGRFTISADTSKNTAYLQMNSLRAEDTAVYYCARTVRGSKKPYFSGWAMDYWGQGTLVTVSS
VL: B1 VL with G91Y, V92Y, Y93W, L94P, F95I
B3: L6^3 IgG (antibody, V domains shown)
VH: EVQLVESGGGLVQPGGSLRLSCAASGFNISYSSIHWVRQAPGKGLEWVAYISSYYGYTYYADSVKGRFTISADTSKNTAYLQMNSLRAEDTAVYYCARAHYFPWAGAMDYWGQGTLVTVSS
VL: DIQMTQSPSSLSASVGDRVTITCRASQSVSSAVAWYQQKPGKAPKLLIYSASSLYSGVPSRFSGSRSGTDFTLTISSLQPEDFATYYCQQYSWGPFTFGQGTKVEIK

Assays:
Settings in all cases: both partners purified
Fc-tagged FZD7 CRD = target: T1, Fc-tagged FZD7 CRD (Homo sapiens, UniProt O75084); test: SPR; soluble F^P Fab or IgG injected over FZD-Fc immobilised on a GLC sensor by amine coupling; PBS, 0.05% Tween20, 0.5% BSA; 25 °C; 1:1 Langmuir model, global fit
T1 construct: Frizzled-7, human, cysteine rich domain (CRD); also called FZD7-Fc; source: bought: R and D Systems

Fc-tagged FZD2 CRD = target: T2, Fc-tagged FZD2 CRD (Homo sapiens, UniProt Q14332); test: as above
T2 construct: Frizzled-2, human, cysteine rich domain (CRD); also called FZD2-Fc; source: bought: R and D Systems

Fc-tagged FZD1 CRD = target: T3, Fc-tagged FZD1 CRD (Homo sapiens, UniProt Q9UP38); test: as above
T3 construct: Frizzled-1, human, cysteine rich domain (CRD); also called FZD1-Fc; source: bought: R and D Systems

Fc-tagged FZD4 CRD = target: T4, Fc-tagged FZD4 CRD (Homo sapiens, UniProt Q9ULV1); test: as above
T4 construct: Frizzled-4, human, cysteine rich domain (CRD); also called FZD4-Fc; source: bought: R and D Systems

[1] = target: T5, Fc-tagged ECD fusion protein of human LRP6 (Homo sapiens, UniProt O75581); test: BLI; epitope binning: LRP6-Fc immobilised on AR2G sensors, saturated with 100 nM Ab, then 100 nM competing Ab; PBS, 1% BSA, 0.05% Tween20; 25 °C
T5 construct: LRP6, human, extracellular domain (ECD); also called LRP6-Fc; LRP6 ECD; source: bought: R and D Systems

Row | Binder | binding result (Fc-tagged FZD7 CRD) | binding result (Fc-tagged FZD2 CRD) | binding result (Fc-tagged FZD1 CRD) | binding result (Fc-tagged FZD4 CRD) | binding result [1]
1 | B1 | binds | binds | binds | binds | 
2 | B2 |  |  |  |  | binds
3 | B3 |  |  |  |  | binds
